Reference: patent US20200399258A1

Amino acid sequences for entries named in this document (tags omitted).
UniProt O95251, whole entry: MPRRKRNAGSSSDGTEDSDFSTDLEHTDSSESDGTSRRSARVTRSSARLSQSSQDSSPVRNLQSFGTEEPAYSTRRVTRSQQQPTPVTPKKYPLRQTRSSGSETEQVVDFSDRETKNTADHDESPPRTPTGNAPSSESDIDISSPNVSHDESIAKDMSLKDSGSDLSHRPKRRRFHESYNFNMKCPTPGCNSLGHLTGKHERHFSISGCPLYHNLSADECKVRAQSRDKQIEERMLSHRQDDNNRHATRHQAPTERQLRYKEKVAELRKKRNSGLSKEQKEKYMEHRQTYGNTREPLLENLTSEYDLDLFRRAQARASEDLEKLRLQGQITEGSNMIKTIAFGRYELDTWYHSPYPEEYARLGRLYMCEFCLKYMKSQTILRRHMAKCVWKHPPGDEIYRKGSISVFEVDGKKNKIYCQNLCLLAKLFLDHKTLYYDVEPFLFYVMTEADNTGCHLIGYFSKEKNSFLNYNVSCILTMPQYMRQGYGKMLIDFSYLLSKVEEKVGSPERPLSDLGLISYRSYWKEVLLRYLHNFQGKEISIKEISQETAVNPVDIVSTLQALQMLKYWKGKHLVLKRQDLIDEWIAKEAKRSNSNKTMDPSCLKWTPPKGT
UniProt Q9H7Z6, whole entry: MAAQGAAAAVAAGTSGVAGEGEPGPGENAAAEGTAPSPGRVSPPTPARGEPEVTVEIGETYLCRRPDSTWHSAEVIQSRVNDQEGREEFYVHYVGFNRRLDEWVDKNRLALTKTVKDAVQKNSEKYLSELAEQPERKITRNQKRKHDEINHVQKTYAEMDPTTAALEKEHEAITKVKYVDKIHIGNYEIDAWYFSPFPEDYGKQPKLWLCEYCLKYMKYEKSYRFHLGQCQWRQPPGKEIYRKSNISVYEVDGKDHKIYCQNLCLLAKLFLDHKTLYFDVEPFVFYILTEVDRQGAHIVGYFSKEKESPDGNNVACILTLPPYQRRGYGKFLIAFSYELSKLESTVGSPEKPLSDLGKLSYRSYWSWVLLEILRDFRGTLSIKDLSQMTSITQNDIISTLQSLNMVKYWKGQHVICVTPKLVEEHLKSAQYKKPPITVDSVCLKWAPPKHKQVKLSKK
UniProt Q92993, whole entry: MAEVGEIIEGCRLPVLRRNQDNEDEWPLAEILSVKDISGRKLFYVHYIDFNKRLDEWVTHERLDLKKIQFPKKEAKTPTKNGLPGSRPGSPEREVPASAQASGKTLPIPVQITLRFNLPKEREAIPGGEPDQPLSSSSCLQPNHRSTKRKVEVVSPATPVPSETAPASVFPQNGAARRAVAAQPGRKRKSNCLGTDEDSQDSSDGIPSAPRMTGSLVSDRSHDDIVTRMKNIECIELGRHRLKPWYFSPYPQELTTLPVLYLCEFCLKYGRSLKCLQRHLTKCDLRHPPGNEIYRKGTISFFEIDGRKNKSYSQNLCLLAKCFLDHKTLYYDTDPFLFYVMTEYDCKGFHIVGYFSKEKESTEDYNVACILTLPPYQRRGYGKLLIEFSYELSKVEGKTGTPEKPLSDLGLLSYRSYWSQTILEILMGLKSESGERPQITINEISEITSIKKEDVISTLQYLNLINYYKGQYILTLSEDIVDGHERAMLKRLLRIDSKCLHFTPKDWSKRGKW
UniProt Q8WYB5, whole entry: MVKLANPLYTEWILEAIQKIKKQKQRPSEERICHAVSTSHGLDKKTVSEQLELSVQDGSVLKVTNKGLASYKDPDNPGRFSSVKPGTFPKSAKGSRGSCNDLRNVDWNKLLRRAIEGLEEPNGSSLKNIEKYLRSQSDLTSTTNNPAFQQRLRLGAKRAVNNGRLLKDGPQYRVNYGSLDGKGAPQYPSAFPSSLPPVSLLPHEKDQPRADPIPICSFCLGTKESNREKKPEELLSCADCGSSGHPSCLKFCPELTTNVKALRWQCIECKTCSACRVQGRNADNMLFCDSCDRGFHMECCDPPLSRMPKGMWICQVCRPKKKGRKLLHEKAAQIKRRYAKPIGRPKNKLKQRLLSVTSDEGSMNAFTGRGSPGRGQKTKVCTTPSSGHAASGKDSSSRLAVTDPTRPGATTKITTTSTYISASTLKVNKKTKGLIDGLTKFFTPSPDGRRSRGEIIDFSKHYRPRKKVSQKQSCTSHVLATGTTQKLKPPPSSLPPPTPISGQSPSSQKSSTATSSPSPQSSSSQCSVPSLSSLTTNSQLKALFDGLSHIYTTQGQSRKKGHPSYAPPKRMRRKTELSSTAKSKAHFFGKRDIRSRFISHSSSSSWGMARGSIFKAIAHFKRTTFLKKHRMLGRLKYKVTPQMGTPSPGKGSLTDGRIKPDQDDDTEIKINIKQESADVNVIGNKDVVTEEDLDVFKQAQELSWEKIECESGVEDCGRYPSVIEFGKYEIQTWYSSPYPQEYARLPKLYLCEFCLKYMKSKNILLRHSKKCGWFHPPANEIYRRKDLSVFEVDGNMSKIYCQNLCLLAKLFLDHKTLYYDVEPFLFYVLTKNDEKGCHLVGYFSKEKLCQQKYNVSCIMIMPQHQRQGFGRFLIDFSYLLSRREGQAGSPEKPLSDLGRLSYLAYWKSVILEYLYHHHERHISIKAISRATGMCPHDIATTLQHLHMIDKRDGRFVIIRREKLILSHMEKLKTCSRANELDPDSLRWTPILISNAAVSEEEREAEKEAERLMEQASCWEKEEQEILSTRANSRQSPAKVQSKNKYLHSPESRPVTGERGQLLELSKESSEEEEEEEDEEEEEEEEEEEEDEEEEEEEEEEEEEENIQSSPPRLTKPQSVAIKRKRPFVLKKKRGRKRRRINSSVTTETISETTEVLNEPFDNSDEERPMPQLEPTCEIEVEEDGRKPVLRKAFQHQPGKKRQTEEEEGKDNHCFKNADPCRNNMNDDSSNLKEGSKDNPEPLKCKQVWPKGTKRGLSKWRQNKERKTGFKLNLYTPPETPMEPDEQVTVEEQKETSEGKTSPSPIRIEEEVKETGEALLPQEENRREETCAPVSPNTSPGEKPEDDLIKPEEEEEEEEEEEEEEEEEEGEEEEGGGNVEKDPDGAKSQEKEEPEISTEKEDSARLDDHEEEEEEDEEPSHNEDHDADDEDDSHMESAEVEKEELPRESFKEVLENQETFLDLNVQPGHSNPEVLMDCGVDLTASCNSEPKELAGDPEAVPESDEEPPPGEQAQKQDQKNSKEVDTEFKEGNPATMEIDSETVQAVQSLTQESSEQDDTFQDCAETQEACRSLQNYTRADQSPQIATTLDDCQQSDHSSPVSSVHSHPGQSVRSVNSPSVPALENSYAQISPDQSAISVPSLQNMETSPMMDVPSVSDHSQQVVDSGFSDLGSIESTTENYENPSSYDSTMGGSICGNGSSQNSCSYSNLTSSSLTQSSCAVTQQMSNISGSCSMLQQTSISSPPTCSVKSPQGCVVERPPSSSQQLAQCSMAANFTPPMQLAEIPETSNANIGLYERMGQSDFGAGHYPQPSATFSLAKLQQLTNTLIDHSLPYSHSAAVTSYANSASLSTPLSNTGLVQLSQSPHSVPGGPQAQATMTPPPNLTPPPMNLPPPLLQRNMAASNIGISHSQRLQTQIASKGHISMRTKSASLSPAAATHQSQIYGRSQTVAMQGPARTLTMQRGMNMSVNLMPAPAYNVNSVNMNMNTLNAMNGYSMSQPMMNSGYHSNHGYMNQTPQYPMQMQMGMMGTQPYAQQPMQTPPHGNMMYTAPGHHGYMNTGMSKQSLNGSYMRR
UniProt Q92794, whole entry: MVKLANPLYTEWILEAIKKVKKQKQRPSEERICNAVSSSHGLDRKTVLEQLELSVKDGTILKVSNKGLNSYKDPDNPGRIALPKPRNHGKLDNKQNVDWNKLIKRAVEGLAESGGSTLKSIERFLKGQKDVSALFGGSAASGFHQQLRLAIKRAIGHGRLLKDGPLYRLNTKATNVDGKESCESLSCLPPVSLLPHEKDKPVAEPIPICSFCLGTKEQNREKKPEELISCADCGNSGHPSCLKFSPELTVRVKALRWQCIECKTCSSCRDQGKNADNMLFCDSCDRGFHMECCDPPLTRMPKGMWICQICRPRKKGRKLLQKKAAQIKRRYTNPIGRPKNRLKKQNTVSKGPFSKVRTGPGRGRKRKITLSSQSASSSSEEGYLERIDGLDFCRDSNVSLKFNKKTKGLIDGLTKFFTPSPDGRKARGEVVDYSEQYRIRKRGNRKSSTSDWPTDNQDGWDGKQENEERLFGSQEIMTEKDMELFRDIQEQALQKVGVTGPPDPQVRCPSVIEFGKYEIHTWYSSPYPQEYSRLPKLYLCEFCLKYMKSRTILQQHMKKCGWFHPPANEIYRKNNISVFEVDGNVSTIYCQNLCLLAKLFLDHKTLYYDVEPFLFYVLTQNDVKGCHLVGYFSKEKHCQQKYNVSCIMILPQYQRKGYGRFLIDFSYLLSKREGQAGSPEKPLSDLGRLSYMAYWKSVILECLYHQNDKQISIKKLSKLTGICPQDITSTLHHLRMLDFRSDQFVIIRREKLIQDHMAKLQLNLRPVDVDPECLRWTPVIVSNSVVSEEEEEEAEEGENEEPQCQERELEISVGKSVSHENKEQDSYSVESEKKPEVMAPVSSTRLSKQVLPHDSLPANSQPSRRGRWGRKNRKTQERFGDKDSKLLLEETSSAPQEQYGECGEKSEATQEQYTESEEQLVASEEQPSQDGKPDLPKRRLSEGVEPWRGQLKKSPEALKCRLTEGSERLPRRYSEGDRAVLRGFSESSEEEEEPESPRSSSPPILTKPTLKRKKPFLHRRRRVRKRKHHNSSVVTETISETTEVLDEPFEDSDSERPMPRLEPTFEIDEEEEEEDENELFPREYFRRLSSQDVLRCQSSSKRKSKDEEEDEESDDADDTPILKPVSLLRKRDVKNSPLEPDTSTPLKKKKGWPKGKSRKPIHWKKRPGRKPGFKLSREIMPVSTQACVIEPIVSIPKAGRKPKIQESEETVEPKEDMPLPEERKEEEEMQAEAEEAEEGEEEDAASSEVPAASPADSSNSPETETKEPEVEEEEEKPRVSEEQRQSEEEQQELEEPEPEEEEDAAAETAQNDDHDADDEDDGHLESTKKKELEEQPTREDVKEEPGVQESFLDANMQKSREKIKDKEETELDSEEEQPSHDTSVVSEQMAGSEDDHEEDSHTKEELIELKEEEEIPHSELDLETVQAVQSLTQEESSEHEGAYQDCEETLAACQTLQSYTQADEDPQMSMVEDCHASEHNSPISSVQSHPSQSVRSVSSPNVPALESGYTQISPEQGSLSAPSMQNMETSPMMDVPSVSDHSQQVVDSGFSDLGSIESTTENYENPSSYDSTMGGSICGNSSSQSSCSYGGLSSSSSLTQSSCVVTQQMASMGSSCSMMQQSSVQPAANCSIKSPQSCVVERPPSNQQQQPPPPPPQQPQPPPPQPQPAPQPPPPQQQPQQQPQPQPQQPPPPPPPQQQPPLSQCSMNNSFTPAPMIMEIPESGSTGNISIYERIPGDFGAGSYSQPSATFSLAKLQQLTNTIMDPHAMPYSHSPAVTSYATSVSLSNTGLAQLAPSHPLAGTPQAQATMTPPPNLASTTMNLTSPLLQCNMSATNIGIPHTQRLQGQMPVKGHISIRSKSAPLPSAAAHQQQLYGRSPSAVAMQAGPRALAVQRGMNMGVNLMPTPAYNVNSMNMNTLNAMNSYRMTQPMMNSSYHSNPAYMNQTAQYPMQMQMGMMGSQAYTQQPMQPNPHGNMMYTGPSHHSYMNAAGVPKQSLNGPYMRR

Assays:
KAT7 = KAT7 (Homo sapiens, UniProt O95251); experiment: KAT assay (SAMDI mass spectrometry), KAT7 Ki; conditions: read-out: KAT7 Ki at 1 μM AcCoA, KAT7 12.5 nM, 2 uM H3 1-21 peptide, 45-minute reaction
Method: (§1) A. Compound Preparation • 1. Prepare 10 mM stock solutions in 100% DMSO from solid material • 2. Serial dilute 10 mM, 1 mM or 0.1 mM compound stocks 3-fold in 100% DMSO for 11-point dose response
(§2) B. Reagent Preparation • 1. Prepare 1× assay buffer containing 10 mM Tris HCL pH 8.0, 2.5 mM NaCl, 0.5 mM EDTA, 0.005% BSG and 0.02% Tween-20 • 2. Dilute Histone peptide (CPC Scientific) and AcCoA (Sigma) together in assay buffer to 2×. • 3. Dilute KAT enzyme in assay buffer to 2×.
(§3) C. Enzyme Reaction • 1. Final reaction conditions for each KAT assay in a 20 ul assay reaction volume: • i. KAT5 25 nM, 1 uM AcCoA, 2 uM H4 1-21 peptide, 30-minute reaction • ii. KAT6A 15 nM, 1 uM AcCoA, 2 uM H3 1-21 peptide, 45-minute reaction • iii. […] Each reaction was analyzed using self-assembled monolayer desorption/ionization time-of-flight mass spectrometry (Mrksich, Milan (2008) Mass Spectrometry of Self-Assembled Monolayers: A New Tool for Molecular Surface Science ACS Nano 2008 2 (1), 7-18; SAMDI Tech, Inc. (Chicago, Ill.)). • 7. Area under the curve (AUC) for both substrate and product peaks was determined for KAT5 at M.W. 2561 [Substrate+H]+ and 2603 [Product+H]^+ with a +/−1 Da tolerance, respectively • 8. Area under the curve (AUC) for both substrate and product peaks was determined for KAT6A, KAT6B, KAT7 and KAT8 at M.W. 2723 [Substrate+H]^+ and 2765 [Product+H]^+ with a +/−1 Da tolerance, respectively. • 9. […]

KAT8 = KAT8 (Homo sapiens, UniProt Q9H7Z6); experiment: KAT assay (SAMDI mass spectrometry), KAT8 Ki; conditions: read-out: KAT8 Ki at 1 μM AcCoA, KAT8 15 nM, 2 uM H3 1-21 peptide, 45-minute reaction
Method: as §1, §2, §3

KAT5 = KAT5 (Homo sapiens, UniProt Q92993); experiment: KAT assay (SAMDI mass spectrometry), KAT5 Ki; conditions: read-out: KAT5 Ki at 1 μM AcCoA, KAT5 25 nM, 2 uM H4 1-21 peptide, 30-minute reaction
Method: as §1, §2, §3

KAT6b = KAT6b (Homo sapiens, UniProt Q8WYB5); experiment: KAT assay (SAMDI mass spectrometry), KAT6b Ki; conditions: read-out: KAT6b Ki at 1 μM AcCoA, KAT6B 25 nM, 2 uM H3 1-21 peptide, 60-minute reaction
Method: as §1, §2, §3

KAT6a = KAT6a (Homo sapiens, UniProt Q92794); experiment: KAT assay (SAMDI mass spectrometry), KAT6a Ki; conditions: read-out: KAT6a Ki at 1 μM AcCoA, KAT6A 15 nM, 2 uM H3 1-21 peptide, 45-minute reaction
Method: as §1, §2, §3

Ki (KAT7) [nM] | Ki (KAT8) [nM] | Ki (KAT5) [nM] | Ki (KAT6b) [nM] | Ki (KAT6a) [nM] | SMILES
1850 | 3260 | 12500 | 12.4 | 6.5 | COc1cccc(OC)c1S(=O)(=O)Nc1noc2cc(Cn3ccc(CO)n3)cc(OC)c12
10500 |  |  |  | 682 | COc1cccc(OC)c1S(=O)(=O)Nc1noc2cc(Cn3nccc3CO)cc(OC)c12
